Measured values published in article PMC12348509, “Classical Paal-Knorr Cyclization for Synthesis of Pyrrole-Based Aryl Hydrazones and In Vitro/In Vivo Evaluation on Pharmacological Models of Parkinson’s Disease” (Molecules, 2025).

Tested on: rat brain mitochondria
Test: t-BuOOH-induced oxidative stress in isolated rat brain mitochondria
Details: vs untreated mitochondria

Question: For `CC(C)(C)OO`, which “decrease of GSH level in mitochondria by the toxic agent alone” value is on record?
Answer: Its value is 50%.

Question: What about the “increase of MDA production in mitochondria by the toxic agent alone” value of the same compound?
Answer: Its value is 150%.
